Assay [1] relates to REC-1 mantle cell lymphoma cells. The experiment in a line: Cell proliferation assay REC-1. The following applies: read-out: IC50 value, REC-1 cells, 120 hours. As for the experimental part: REC-1 mantle cell lymphoma cells were purchased from Deutsche Sammlung von Mikroorganismen und Zellkulturen (cat. no. ACC 584, DSMZ) and cultured in RPMI-1640 cell culture medium (cat. no. 61870036, Life Technologies), supplemented with 18% (v/v) fetal bovine calf serum and 1% penicillin/streptavidin. 1200 cells per well (in 45 μl) were seeded in a white 384-well culture plate (cat. no. 781080, Greiner Bio-One) and allowed to rest for at least 5 hours at 37 °C, 95% humidity, and 5% CO2. 5 μl compound solution was added to the cells and incubation was continued for 120 hours (5 days), followed by addition of 24 μl ATPlite 1Step™ (PerkinElmer, Groningen, The Netherlands) solution was added to each well. Luminescence was recorded on an Envision multimode reader. The cell signal at the start of incubation was recorded separately in order to distinguish between cell population growth and cell death. In addition, maximum growth was determined by incubation of a duplicate without compound in the presence of 0.3% DMSO. Percentage growth was used as the main y-axis signal. IC50s were fitted by non-linear regression using IDBS XLfit™5 using a 4-parameter logistic curve, yielding a maximum signal, minimum signal, hill-parameter and IC50.

The chains behind the UniProt entries cited, without tags or fusion partners. Residues count along the entry.
UniProt P09619, 33-1106 limits assumed: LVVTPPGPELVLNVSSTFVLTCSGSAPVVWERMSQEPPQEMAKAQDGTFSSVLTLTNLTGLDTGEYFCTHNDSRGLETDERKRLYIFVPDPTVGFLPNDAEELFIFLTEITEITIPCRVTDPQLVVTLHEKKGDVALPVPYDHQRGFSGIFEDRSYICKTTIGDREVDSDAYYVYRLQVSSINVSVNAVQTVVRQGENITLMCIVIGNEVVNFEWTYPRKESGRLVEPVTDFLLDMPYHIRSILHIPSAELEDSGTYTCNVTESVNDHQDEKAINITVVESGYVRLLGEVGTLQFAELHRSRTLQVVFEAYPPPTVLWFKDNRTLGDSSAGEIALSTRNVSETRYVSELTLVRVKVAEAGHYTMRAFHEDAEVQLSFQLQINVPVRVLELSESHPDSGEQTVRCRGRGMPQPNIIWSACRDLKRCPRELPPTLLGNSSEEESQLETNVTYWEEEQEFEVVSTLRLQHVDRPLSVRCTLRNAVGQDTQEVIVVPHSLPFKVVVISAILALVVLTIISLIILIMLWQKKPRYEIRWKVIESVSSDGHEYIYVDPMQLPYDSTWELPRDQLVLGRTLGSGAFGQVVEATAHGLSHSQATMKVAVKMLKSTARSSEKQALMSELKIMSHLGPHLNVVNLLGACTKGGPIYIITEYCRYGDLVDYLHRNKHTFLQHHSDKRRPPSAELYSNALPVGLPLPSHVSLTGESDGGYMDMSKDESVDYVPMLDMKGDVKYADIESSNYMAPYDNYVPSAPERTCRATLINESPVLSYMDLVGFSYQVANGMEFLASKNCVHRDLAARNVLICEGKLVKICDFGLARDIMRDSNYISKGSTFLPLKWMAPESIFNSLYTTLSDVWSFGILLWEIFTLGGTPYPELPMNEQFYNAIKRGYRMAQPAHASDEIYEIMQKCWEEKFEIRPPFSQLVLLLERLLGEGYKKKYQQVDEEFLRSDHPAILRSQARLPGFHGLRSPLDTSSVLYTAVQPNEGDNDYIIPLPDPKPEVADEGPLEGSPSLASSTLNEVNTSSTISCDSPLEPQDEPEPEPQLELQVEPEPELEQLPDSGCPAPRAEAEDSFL
UniProt P07949, 29-1114 limits assumed: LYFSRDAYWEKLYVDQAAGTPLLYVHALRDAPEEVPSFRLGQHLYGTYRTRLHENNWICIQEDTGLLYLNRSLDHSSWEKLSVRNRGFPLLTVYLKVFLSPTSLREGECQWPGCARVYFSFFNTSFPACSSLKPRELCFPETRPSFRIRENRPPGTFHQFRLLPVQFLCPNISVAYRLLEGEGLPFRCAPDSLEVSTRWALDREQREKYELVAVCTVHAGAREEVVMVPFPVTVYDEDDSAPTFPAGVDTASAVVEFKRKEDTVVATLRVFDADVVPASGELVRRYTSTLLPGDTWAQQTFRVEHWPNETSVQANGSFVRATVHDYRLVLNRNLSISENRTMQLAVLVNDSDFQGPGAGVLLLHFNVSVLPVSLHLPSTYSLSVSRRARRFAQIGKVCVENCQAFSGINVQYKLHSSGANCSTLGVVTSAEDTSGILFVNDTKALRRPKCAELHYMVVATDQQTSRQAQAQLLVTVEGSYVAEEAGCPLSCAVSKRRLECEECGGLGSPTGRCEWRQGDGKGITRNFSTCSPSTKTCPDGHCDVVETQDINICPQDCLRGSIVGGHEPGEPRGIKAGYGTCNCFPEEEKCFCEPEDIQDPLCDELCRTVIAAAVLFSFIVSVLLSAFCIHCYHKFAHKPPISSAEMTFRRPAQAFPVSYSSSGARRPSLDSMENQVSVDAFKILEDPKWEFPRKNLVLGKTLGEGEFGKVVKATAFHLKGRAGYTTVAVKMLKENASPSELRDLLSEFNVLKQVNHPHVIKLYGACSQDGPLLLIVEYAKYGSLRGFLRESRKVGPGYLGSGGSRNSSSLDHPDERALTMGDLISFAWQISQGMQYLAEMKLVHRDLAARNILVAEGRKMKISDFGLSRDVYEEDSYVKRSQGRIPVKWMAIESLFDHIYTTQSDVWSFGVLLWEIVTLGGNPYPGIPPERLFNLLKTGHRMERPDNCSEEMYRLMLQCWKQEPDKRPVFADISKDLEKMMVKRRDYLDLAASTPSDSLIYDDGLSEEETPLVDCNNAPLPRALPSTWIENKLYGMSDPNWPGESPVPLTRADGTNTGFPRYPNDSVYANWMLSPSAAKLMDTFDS
UniProt Q08881, whole entry: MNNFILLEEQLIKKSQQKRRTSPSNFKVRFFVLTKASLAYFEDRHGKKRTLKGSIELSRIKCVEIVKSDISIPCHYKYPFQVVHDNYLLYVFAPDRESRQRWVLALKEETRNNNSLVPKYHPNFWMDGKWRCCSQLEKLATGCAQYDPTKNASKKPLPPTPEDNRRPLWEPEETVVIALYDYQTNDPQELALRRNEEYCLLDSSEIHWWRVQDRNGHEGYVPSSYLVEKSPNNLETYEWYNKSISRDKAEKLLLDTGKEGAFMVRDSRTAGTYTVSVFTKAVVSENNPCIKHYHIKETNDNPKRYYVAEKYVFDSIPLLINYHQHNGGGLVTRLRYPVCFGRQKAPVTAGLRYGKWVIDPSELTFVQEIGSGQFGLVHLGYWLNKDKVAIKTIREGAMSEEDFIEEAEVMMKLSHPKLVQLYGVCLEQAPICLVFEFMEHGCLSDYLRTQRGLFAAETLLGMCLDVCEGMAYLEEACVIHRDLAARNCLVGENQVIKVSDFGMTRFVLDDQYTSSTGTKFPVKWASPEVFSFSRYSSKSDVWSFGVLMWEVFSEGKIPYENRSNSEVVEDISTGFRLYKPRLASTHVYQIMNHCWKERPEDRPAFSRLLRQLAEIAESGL
UniProt P30530, 26-894 limits assumed: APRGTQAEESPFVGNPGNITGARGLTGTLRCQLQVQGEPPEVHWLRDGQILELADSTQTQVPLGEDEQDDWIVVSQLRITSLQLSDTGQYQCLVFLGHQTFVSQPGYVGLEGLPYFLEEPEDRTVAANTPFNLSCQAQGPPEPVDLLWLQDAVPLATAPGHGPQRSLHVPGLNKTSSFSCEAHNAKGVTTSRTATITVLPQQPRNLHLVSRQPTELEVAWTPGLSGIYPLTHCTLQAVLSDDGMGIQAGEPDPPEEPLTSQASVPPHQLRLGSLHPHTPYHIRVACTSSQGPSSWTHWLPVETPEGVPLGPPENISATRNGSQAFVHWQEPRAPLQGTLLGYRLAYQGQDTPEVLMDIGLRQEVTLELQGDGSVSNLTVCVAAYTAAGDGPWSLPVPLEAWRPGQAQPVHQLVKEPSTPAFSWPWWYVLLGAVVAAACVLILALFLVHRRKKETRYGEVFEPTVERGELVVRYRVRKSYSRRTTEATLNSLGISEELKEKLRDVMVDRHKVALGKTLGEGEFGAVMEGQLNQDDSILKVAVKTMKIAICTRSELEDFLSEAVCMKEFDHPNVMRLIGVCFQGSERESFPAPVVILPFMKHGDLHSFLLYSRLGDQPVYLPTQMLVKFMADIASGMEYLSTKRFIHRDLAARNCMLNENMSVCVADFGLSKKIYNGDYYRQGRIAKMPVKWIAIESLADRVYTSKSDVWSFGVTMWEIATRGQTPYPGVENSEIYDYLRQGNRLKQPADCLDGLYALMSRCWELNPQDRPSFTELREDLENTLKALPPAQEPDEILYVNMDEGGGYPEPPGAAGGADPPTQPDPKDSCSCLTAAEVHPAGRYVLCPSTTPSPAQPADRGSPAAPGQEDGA
UniProt P00533, 25-1210 limits assumed: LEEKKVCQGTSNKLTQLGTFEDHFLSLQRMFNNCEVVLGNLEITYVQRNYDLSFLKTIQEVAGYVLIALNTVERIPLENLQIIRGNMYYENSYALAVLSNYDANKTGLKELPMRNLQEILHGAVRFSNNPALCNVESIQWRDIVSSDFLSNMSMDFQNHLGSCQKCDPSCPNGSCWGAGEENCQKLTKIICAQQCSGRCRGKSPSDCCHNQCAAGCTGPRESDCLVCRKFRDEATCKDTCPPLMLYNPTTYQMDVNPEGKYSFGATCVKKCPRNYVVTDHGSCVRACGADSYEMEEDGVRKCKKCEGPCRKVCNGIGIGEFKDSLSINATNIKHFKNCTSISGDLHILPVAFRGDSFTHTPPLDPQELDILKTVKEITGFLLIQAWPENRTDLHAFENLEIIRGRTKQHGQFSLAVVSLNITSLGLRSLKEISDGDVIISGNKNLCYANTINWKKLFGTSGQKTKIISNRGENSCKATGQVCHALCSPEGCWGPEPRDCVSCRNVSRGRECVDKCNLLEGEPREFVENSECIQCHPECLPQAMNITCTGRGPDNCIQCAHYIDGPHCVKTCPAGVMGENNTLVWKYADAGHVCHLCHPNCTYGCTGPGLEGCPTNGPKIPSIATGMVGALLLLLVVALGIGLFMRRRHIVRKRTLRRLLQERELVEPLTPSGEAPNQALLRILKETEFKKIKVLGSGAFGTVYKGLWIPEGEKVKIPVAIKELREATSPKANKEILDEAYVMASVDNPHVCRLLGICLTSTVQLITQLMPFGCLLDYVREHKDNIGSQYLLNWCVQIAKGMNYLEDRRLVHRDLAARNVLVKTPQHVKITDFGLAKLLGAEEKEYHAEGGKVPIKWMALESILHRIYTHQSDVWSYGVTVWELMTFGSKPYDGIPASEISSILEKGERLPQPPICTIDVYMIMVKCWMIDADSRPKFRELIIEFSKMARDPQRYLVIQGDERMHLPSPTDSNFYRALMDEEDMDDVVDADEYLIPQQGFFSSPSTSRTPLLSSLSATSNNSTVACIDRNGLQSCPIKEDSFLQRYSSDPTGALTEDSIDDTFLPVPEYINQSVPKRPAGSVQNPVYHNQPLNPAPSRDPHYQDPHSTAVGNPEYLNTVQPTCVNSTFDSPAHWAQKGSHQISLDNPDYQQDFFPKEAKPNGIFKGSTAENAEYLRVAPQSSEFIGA
UniProt P07947, whole entry: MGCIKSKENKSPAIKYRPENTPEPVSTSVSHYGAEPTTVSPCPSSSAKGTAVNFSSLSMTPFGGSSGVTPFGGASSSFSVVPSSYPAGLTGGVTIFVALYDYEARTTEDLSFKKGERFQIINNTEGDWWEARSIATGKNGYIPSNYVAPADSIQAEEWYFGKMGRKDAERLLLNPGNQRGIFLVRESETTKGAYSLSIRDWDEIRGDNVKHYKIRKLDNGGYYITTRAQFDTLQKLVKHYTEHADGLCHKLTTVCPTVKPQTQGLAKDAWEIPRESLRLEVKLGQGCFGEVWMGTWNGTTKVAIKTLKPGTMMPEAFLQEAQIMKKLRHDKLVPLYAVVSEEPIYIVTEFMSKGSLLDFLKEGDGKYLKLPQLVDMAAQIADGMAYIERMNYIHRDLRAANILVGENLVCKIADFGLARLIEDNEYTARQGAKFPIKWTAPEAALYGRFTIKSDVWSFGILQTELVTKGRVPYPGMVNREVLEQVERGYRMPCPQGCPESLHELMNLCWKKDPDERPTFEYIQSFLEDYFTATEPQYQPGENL
UniProt P12931, whole entry: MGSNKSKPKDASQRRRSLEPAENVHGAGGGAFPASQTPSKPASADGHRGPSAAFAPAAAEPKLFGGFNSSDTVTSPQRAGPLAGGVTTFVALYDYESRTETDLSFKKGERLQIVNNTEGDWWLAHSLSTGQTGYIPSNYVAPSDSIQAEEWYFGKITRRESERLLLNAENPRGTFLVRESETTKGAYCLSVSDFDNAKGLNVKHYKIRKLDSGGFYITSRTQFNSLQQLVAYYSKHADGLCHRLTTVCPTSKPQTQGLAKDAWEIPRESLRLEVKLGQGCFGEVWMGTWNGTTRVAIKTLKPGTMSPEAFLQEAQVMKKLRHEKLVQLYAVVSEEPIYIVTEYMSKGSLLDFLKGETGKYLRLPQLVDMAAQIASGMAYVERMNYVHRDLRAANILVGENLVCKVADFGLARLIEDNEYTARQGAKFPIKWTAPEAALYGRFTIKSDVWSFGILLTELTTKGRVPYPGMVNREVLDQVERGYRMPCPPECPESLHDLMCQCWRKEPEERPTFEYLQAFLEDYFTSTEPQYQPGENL
UniProt P06239, whole entry: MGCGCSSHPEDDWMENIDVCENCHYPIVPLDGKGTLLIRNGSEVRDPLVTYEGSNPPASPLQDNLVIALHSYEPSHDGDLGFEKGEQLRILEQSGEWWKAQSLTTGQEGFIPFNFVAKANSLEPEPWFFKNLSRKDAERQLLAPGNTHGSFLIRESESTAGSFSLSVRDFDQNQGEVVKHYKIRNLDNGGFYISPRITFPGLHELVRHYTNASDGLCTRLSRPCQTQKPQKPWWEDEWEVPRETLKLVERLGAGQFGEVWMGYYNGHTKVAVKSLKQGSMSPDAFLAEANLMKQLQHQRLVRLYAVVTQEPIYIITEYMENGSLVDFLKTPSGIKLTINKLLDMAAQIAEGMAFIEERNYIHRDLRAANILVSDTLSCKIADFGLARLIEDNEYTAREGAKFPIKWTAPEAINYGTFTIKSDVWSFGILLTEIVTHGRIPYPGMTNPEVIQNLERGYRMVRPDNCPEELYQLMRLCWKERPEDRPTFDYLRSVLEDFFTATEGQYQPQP

The target in assay [2] is PDGFrB (Homo sapiens, UniProt P09619). The experiment in a line: Binding kinetics assay (surface plasmon resonance) PDGFR-β. The conditions noted are these: SPR, 22 °C. From the text:
(§1) Binding Kinetics Assay wt-BTK, BTK C481S, LCK, FGFR1, FLT3, PDGFR-β, FMS, LYN, MEK1, AUR-B. ITK. VEGFR, EGFR, FGFR3, AXL, c-MET, SRC, YES, ABL, RET and IGFR1 (Surface Plasmon Resonance)
(§2) Streptavidin-coated chips (Cat. No. BR100531), disposables and maintenance kits for Biacore were purchased from Cytiva (Eindhoven, The Netherlands). Biotinylated wt-BTK enzym (Carna Biosciences, cat. no. 08-480-20N), BTK C481S (Carna Biosciences, cat. no. 08-417-20N), LCK (Carna Biosciences, cat. no. 08-470-20N), FGFR1 (Carna Biosciences, cat. no. 08-435-20N), FLT3 (Carna Biosciences, cat. no. 08-454-20N), PDGFR-β (Carna Biosciences, cat. no. 08-458-20N), FMS (Carna Biosciences, cat. no. 08-455-20N), LYN (Carna Biosciences, cat. no. 08-471-20N), MEK1 (Carna Biosciences, cat. no. 07-441-10-20N), AUR-B (Carna Biosciences, cat. no. 05-402-21N), ITK (Carna Biosciences, cat. no. 08-481-20N), VEGFR (Carna Biosciences, cat. no. 08-491-20N), EGFR (Carna Biosciences, cat. no. 08-415-20N), FGFR3 (Carna Biosciences, cat. no. 08-433-20N), AXL (Carna Biosciences, cat. no. 08-407-20N), c-MET (Carna Biosciences, cat. no. 08-451-20N), SRC (Carna Biosciences, cat. no. 08-473-20N), YES (Carna Biosciences, cat. no. 08-475-20N), ABL (Carna Biosciences, cat. no. 08-401-20N), RET (Carna Biosciences, cat. no. 08-459-20N) or IGFR1 (Carna Biosciences, cat. no. 08-441-20N) were immobilized on a streptavidin-coated chip to a level of about 8000 resonance units (RU) using Biacore buffer (50 mM Tris pH 7.5, 0.05% (v/v) Tween-20, 150 mM NaCl and 5 mM MgCl2)+1 mM TCEP. Remaining streptavidin was blocked with biocytin. Immobilization was performed at 4 °C. Subsequent assay steps were conducted at 22 °C. After changing buffer to Biacore buffer with 1% (v/v) dimethylsulfoxide (DMSO), a pre-run was performed for a period of at least 30 min at a flow rate of 30 μl/min to obtain a stable surface. The kinetic constants of the compounds were determined with single cycle kinetics with five consecutive injections with an increasing compound concentration with ranges of 3.16-316 nM. Experiments were performed with an association time of 100 s per concentration and a dissociation time of 1200 s, except for compounds with a long target residence time, such as irreversible inhibitors, where dissociation time was increased. To circumvent problems of mass transport limitation, a flow rate of 30 μl/min was used. A blank run with the same conditions was performed before the compound was injected. The SPR sensorgrams were analyzed with Biacore Evaluation Software by using a method of double referencing. First the reference channel was subtracted from the channel containing immobilized protein. Subsequently, the reference curve obtained with buffer injections was subtracted. The resulting curve was fitted with a 1:1 binding model. Compounds that bound according to an induced fit model were fitted with a two-state reaction model. The kinetic constants (ka, […], KD) of duplicates were geometrically averaged. Target residence time (τ) for the 1:1 binding model was calculated from the dissociation constant kd with the formula T=1/kd. Target residence for an induced fit model was calculated as described (Tummino and Copeland, 2008).
On the technique in general: In SPR one partner is held on a chip, and binding of the other changes the refractive index at the surface.

For assay [3], the target named is Fms (Homo sapiens, UniProt P07333). The assay is described as follows: Binding kinetics assay (surface plasmon resonance) FMS. The conditions noted are these: SPR, 22 °C.
Text: as §1, §2

Assay [4] deals with KG-1 acute myeloid leukemia cells. The experiment in a line: Cell proliferation assay KG-1. The following applies: read-out: IC50 value, KG-1 cells, 72 hours. As for the experimental part: KG-1 acute myeloid leukemia cells were purchased from American Type Culture Collection (cat. no. CCL-246, ATCC). Frozen stocks were thawed and cells were diluted in IMDM cell culture medium (cat. no. 31980022, Life Technologies), supplemented with 20% (v/v) fetal calf serum and 1% penicillin/streptavidin. 3200 cells per well (in 45 μl) were seeded in a white 384-well culture plate (cat. no. 781080, Greiner Bio-One) and allowed to rest for 24 hours at 37 °C, 95% humidity, and 5% CO2. 5 μl compound solution was added to the cells and incubation was continued for 72 hours (3 days), followed by addition of 24 μl ATPlite 1Step™ (PerkinElmer, Groningen, The Netherlands) solution was added to each well. Luminescence was recorded on an Envision multimode reader. The cell signal at the start of incubation was recorded separately in order to distinguish between cell population growth and cell death. In addition, maximum growth was determined by incubation of a duplicate without compound in the presence of 0.3% DMSO. Percentage growth was used as the main y-axis signal.
IC50s were fitted by non-linear regression using IDBS XLfit™5 using a 4-parameter logistic curve, yielding a maximum signal, minimum signal, hill-parameter and IC50.

Assay [5] has as its target RET (Homo sapiens, UniProt P07949). The experiment in a line: Binding kinetics assay (surface plasmon resonance) RET. The conditions noted are these: SPR, 22 °C.
Text: as §1, §2

Assay [6] concerns the target ITK (Homo sapiens, UniProt Q08881). The assay is described as follows: Binding kinetics assay (surface plasmon resonance) ITK. The conditions noted are these: SPR, 22 °C.
Text: as §1, §2

In assay [7] the target is AXL (Homo sapiens, UniProt P30530). The assay is described as follows: Binding kinetics assay (surface plasmon resonance) AXL. The following applies: SPR, 22 °C.
Text: as §1, §2

The target of assay [8] is EGFR (Homo sapiens, UniProt P00533). The experiment in a line: Binding kinetics assay (surface plasmon resonance) EGFR. The conditions noted are these: SPR, 22 °C.
Text: as §1, §2

Assay [9] concerns the target YES (Homo sapiens, UniProt P07947). The assay is described as follows: Binding kinetics assay (surface plasmon resonance) YES. The following applies: SPR, 22 °C.
Text: as §1, §2

In assay [10] the target is SRC (Homo sapiens, UniProt P12931). The experiment in a line: Binding kinetics assay (surface plasmon resonance) SRC. The conditions noted are these: SPR, 22 °C.
Text: as §1, §2

Assay [11] addresses LCK (Homo sapiens, UniProt P06239). The assay is described as follows: Binding kinetics assay (surface plasmon resonance) LCK. The following applies: SPR, 22 °C.
Text: as §1, §2

SMILES strings stand for the structures.

In general, IC50 refers to the concentration that gives 50% inhibition. On to `C[C@@H]1CCn2nc(-c3ccc(C(=O)Nc4cc(C(F)(F)F)ccn4)cc3)c3c(N)ncc(c32)/C=C/CCCCC(=O)N1`, for which the IC50 in assay [1] is < 50 nM.
For the compound `Nc1ncc2c3c1c(-c1ccc(C(=O)Nc4cc(C(F)(F)F)ccn4)cc1)nn3[C@@H]1CCCN(C1)C(=O)CCCCCC/C=C/2`, the half-maximal inhibitory concentration (IC50) in [1] is < 50 nM.
Usually Kd stands for the free concentration of one partner at which half of the binding sites on the other are occupied at equilibrium, for simple one-to-one binding. Higher therefore signals lower affinity. For `C[C@@H]1CCn2nc(-c3ccc(NC(=O)Nc4cc(C(C)(C)C)on4)cc3)c3c(N)ncc(c32)/C=C/CCOCCC(=O)N1`, the results for the dissociation constant Kd in assay [2] and in [3] were 5 to 50 nM and 50 to 500 nM, respectively. In addition, the “Target residence time Tau (τ)” value in [2] is “A (τ between 0.2 h and 1 h)”; in assay [3] it was “A (τ between 0.2 h and 1 h)”.
In the case of `Nc1cc(-c2nn3c4c(cnc(N)c24)/C=C/CCCCCCC(=O)N2CCC[C@@H]3C2)c(F)cc1Cl`, the IC50 in assay [4] is < 300 nM. In addition, in assay [5], the Kd was < 5 nM; the “Target residence time Tau (τ)” value was “A (τ between 0.2 h and 1 h)”.
For `Cc1cc(NC(=O)c2cccc(-c3nn4c5c(cnc(N)c35)/C=C/CCCCCNC(=O)[C@@H]3CCC[C@@H]4C3)c2)ccc1C(C)C`, in [6], the dissociation constant (Kd) is 5 to 50 nM; the “Target residence time Tau (τ)” value is “A (τ between 0.2 h and 1 h)”.
For the compound `C[C@@H]1CCn2nc(-c3ccc(OCc4cccc(F)c4)c(Cl)c3)c3c(N)ncc(c32)/C=C/CCOCCC(=O)N1`, in assay [7], the Kd was < 5 nM; the “Target residence time Tau (τ)” value was “B (τ between 1 and 3 h)”. Also, in assay [8], the equilibrium dissociation constant (Kd) fell in the range of 5 to 50 nM; the “Target residence time Tau (τ)” value is “A (τ between 0.2 h and 1 h)”.
Take `C[C@@H]1CCn2nc(-c3cnc4[nH]ccc4c3)c3c(N)ncc(c32)/C=C/CCCCCC(=O)N1`: in assay [9], the Kd is < 5 nM; the “Target residence time Tau (τ)” value was “B (τ between 1 and 3 h)”.
With `Nc1ncc2c3c1c(-c1ccc(C(=O)Nc4cc(C(F)(F)F)ccn4)cc1)nn3[C@@H]1CCC[C@H](C1)NC(=O)CCNCC/C=C/2`, in assay [6], the dissociation constant (Kd) is < 5 nM; the “Target residence time Tau (τ)” value was “A (τ between 0.2 h and 1 h)”. For the same compound, the IC50 in assay [1] is < 50 nM.
On to `C[C@@H]1CCn2nc(-c3cccc(OCc4ccccc4)c3)c3c(N)ncc(c32)/C=C/CCOCCC(=O)N1`, for which, in [8], the Kd is < 5 nM; the “Target residence time Tau (τ)” value is “A (τ between 0.2 h and 1 h)”.
On to `C[C@@H]1CCn2nc(-c3ccc(NS(=O)(=O)c4ccccc4F)c(F)c3)c3c(N)ncc(c32)/C=C/CCCCCC(=O)N1`, for which, in [7], the Kd is < 5 nM; the “Target residence time Tau (τ)” value was “A (τ between 0.2 h and 1 h)”.
`Nc1ncc2c3c1c(-c1ccc(C(=O)Nc4cc(C(F)(F)F)ccn4)cc1)nn3[C@@H]1CCC[C@H](C1)NC(=O)COCC/C=C/2`: the IC50 in [1] is < 50 nM.
With `CC(C)(C)c1cc(NC(=O)Cc2ccc(-c3nn4c5c(cnc(N)c35)/C=C/CCCCCCC(=O)N3CCC[C@@H]4C3)cc2)no1`, in assay [4], the IC50 is < 300 nM. For the same compound, the Kd in assay [5] lay in the range of 5 to 50 nM.
As for `Nc1ncc2c3c1c(-c1ccc(C(=O)Nc4cc(C(F)(F)F)ccn4)cc1)nn3[C@@H]1CCC[C@H](C1)NC(=O)CCCC/C=C/2`, the IC50 in [1] was < 50 nM.
Regarding `Cc1cc(NC(=O)c2cccc(-c3nn4c5c(cnc(N)c35)/C=C/CCOCCC(=O)N[C@@H]3CCC[C@@H]4C3)c2)ccc1C(C)C`, in assay [6], the Kd lay in the range of 5 to 50 nM; the “Target residence time Tau (τ)” value was “A (τ between 0.2 h and 1 h)”.
As to `Nc1ncc2c3c1c(-c1ccc(C(=O)Nc4cc(C(F)(F)F)ccn4)cc1)nn3[C@@H]1CCC[C@H](C1)NC(=O)CCCC/C=C\C2`, the half-inhibitory concentration (IC50) in [1] is < 50 nM.
`Cc1cc(NC(=O)c2cccc(-c3nn4c5c(cnc(N)c35)/C=C/CCCCCC(=O)N[C@@H]3CCC[C@@H]4C3)c2)ccc1C(C)C`: in assay [6], the Kd fell in the range of 5 to 50 nM; the “Target residence time Tau (τ)” value is “B (τ between 1 and 3 h)”.
Take `C[C@@H]1CCn2nc(-c3ccc(NS(=O)(=O)c4ccccc4F)c(F)c3)c3c(N)ncc(c32)/C=C/CCOCCC(=O)N1`: the Kd is 5 to 50 nM in assay [7], 5 to 50 nM in assay [10], < 5 nM in assay [9] and 5 to 50 nM in [11]. Besides, the “Target residence time Tau (τ)” value in assay [7] is “A (τ between 0.2 h and 1 h)”; in assay [10] it was “A (τ between 0.2 h and 1 h)”; in [9], “B (τ between 1 and 3 h)”; in assay [11], “A (τ between 0.2 h and 1 h)”.
With `C[C@@H]1CCn2nc(-c3cnc4[nH]ccc4c3)c3c(N)ncc(c32)/C=C/CCOCCC(=O)N1`, the Kd in [2] was 5 to 50 nM; in [10], 5 to 50 nM; in assay [9], 5 to 50 nM; in assay [11], < 5 nM. Besides, the “Target residence time Tau (τ)” value in assay [2] was “A (τ between 0.2 h and 1 h)”; in assay [10], “B (τ between 1 and 3 h)”; in [9], “B (τ between 1 and 3 h)”; in assay [11] it was “A (τ between 0.2 h and 1 h)”.
Regarding `Nc1ncc2c3c1c(-c1ccc(C(=O)Nc4cc(C(F)(F)F)ccn4)cc1)nn3[C@@H]1CCC[C@H](C1)C(=O)NCCCC/C=C/2`, in assay [1], the IC50 is < 50 nM.
The same measure, in the same setting: the same measure for `Nc1ncc2c3c1c(-c1ccc(C(=O)Nc4cc(C(F)(F)F)ccn4)cc1)nn3[C@@H]1CCC[C@H](C1)C(=O)NCCCCCCC2`: < 50 nM.

The record behind these values is patent US20260382605A1, “REVERSIBLE MACROCYCLIC KINASE INHIBITORS” (published 2026).
